From BindingDB's records for doi:10.1021/bi401043w (Mayo Clinic, 2013)

The chains behind the UniProt entries cited, without tags or fusion partners. Where a name states a change or a piece, a line headed by the entry shows the natural chain unless it says otherwise.
UniProt P22303: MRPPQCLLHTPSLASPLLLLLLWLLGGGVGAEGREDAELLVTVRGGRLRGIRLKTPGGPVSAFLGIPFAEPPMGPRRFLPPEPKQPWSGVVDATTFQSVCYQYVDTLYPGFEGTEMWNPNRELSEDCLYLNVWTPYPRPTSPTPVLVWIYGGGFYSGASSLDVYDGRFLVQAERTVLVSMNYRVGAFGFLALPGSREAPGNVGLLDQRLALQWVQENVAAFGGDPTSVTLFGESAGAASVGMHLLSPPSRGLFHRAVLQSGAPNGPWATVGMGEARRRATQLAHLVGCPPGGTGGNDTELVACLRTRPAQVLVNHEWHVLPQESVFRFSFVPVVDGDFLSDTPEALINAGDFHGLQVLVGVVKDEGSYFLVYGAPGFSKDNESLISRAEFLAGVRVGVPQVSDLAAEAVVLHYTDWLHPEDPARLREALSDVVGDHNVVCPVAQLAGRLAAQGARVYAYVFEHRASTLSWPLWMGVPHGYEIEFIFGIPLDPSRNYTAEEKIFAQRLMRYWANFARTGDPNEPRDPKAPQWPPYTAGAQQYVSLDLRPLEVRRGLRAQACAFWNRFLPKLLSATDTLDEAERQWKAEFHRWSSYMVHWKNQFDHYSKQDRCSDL

Biological target: Acetylcholinesterase (Homo sapiens, UniProt P22303)
Assay: Assay of Substrate Hydrolysis
Conditions: pH 7; 25 °C

CC[N+](C)(CC)CCCn1c2cc(=N)ccc-2c2ccc(N)cc2c1-c1ccccc1 [Propidium Iodide, 2]
Ki: 660 nM
